Results published in patent publication US20200064333A1, “ECM COMPOSITION, TUMOR MICROENVIRONMENT PLATFORM AND METHODS THEREOF” (MITRA RXDX INDIA PRIVATE LIMITED, priority 2011, published 2020).

Tests used:
[1] = system: Glioblastoma, Ca-Ovary, Ca-Breast, Ca-Oesophagus, Ca-Pancreas, Ca-Stomach; test: Clinical outcome of patients (PETCT or CT), other solid cancers; assay type: in vivo, human; conditions: evaluated at the end of 6-8 months by PETCT or CT
tumor explants = test: Explant cell viability (MTT / WST); conditions: HNSCC biopsy explants, three days, vs DMSO control, n=20, p<0.001 (FIG. 9(e))
[2] = system: stage III/IV colon cancer; conditions: cited from earlier work
[3] = system: HNSCC patient tumors grown in immunocompromised mice; test: Therapeutic efficacy in human tumor xenografts (HTX) of SCID/nude mice; assay type: in vivo; conditions: three times a week for about 23 days, vs normal saline, p<0.001 (FIG. 9(g))

Cetuximab
Clinical readout RECIST ([1]; CRC patients): 2
Clinical readout RECIST ([1]; Ca-Breast patients): 3
cell viability by WST (tumor explants): inhibition of cell viability
patient respond clinically [2]: 10-30%
tumor growth in vivo (tumor volume) [3]: tumor growth inhibition
